The list shows a part of the results, in another mix than the full data. Some tests of the compounds listed are not included; inactive here does not mean inactive elsewhere. Active and inactive are the calls of the source.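 Rule for the calls: active = B-score over 3 SD under the library average, no early fluorescence shift, positive overall ratio signal; inactive = the rest.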

Sequences of proteins named here, by UniProt entry; tags and fusion partners are left off.
UniProt Q9QUQ5, whole entry: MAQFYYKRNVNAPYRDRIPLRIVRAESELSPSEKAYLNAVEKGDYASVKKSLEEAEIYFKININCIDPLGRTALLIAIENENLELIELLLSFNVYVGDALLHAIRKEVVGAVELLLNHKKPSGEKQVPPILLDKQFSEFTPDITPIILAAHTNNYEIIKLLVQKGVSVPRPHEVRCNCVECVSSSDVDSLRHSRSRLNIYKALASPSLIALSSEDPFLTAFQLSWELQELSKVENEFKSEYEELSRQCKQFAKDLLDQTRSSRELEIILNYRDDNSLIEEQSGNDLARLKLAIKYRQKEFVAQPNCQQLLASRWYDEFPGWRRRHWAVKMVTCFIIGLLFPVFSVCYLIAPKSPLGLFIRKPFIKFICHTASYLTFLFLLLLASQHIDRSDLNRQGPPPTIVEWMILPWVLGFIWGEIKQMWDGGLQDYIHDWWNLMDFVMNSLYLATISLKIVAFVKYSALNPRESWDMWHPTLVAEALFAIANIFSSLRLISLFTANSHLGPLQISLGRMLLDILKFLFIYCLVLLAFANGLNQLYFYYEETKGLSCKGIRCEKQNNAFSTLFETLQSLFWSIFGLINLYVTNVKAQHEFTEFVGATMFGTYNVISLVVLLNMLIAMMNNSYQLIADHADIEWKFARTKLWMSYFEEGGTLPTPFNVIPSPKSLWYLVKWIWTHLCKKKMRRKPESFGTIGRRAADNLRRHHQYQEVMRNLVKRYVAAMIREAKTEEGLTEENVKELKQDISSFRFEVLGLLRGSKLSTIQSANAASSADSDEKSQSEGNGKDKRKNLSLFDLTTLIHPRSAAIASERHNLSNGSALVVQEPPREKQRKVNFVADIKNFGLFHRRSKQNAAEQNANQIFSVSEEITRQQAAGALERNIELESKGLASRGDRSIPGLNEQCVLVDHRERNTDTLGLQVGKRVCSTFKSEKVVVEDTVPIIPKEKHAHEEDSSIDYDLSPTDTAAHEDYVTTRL

This assay deals with Short transient receptor potential channel 4 (Mus musculus) (UniProt Q9QUQ5). Kind of assay: inhibitors of mouse TRPC4 channel, primary screen, Fluo4 calcium, HEK293 TRPC4beta/mu-opioid cells (AID 2247). The note with it: DAMGO-evoked Fluo4 calcium flux, at 10 µM. In general terms: Calcium flux is commonly read through the fluorescence of an indicator in the cells.
Consider `O=C(NCC1(N2CCCCC2)CCCCC1)c1cc([N+](=O)[O-])ccc1Cl`, for which the outcome was inactive.

As for `CN1[C@@H]2CC[C@H]1CC(OC(=O)C(O)(c1ccccc1)c1ccccc1)C2` (stereo partly drawn), the outcome was inactive.

As to `CCN(CC)CC(C)C(C)OC(=O)C(O)(c1ccccc1)c1ccccc1` (stereo not drawn), the outcome was inactive.

Take `COc1cc(SC)ccc1C(=O)NCC1(N(C)C)CCCCC1`: the result was inactive.

For the compound `CC(C)N1C(=O)CC2(CCN(CCOC(=O)C(O)(c3ccccc3)c3ccccc3)CC2)C1=O`, the outcome was inactive.

For the compound `Cc1ccc(C(=O)NCC2(N3CCCCC3)CCCCC2)cc1`, the outcome was inactive.

Consider `Cc1ccccc1C(=O)NCC1(N2CCCCC2)CCCCC1`, for which the outcome was inactive.

For `CN(C)C1CCCC1OC(=O)C(O)(c1ccccc1)c1ccccc1` (stereo not drawn), the result was inactive.

On to `C=CCN1CCN(CCOC(=O)C(O)(c2ccccc2)c2ccccc2)CC1`, for which the outcome was inactive.

Turning to `O=C(NCC1(N2CCCCC2)CCCCC1)c1cc(F)c(F)cc1Cl`, the outcome was inactive.

Consider `COc1ccc(C(=O)NCC2(N(C)C)CCCCC2)cc1`, for which the result was inactive.

In the case of `Cc1cc(C(=O)NCC2(N3CCCCC3)CCCCC2)ccc1[N+](=O)[O-]`, the outcome was inactive.

Consider `CCN1CCCC(OC(=O)C2(O)c3ccccc3C=Cc3ccccc32)C1` (stereo not drawn), for which the outcome was inactive.

Turning to `O=C(NCC1(N2CCCCC2)CCCCC1)c1cccc(Br)c1`, the outcome was inactive.

For the compound `CN(C)C1(CNC(=O)c2ccc(Br)cc2)CCCCC1`, the outcome was inactive.

As for `COc1cc(C(=O)NCC2(N(C)C)CCCCC2)c([N+](=O)[O-])cc1OC`, the outcome was inactive.

As for `COc1cccc(C(=O)NCC2(N3CCCCC3)CCCCC2)c1`, the outcome was inactive.

On to `COc1ccc(Cl)cc1C(=O)NCC1(N(C)C)CCCCC1`, for which the outcome was inactive.

On to `O=C(NCC1(N2CCCCC2)CCCCC1)c1cccc(Cl)c1`, for which the result was inactive.

In the case of `O=C(OC1CN2CCC1CC2)C(CO)(c1ccccc1)c1ccccc1` (stereo not drawn), the result was inactive.

For `COc1ccc(Br)c(C(=O)NCC2(N3CCCCC3)CCCCC2)c1`, the result was inactive.

`CC(C)Oc1ccc(C(=O)NCC2(N(C)C)CCCCC2)cc1`: the result was inactive.

For `CN(C)c1cccc(C(=O)NCC2(N(C)C)CCCCC2)c1`, the result was inactive.
